According to PubChem BioAssay AID2177 (The Scripps Research Institute Molecular Screening Center, 2009):
The list shows a part of the results, in another mix than the full data. The source made the active and inactive calls.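 Rule for the calls: active = inhibition above the screen-wide mean plus 3 SD, limit set per campaign (cut at about 26% in these data); inactive = the rest.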

By UniProt entry, the sequences of proteins in these tests, tags left out. Where a name states a change or a piece, a line headed by the entry shows the natural chain unless it says otherwise.
UniProt O95372: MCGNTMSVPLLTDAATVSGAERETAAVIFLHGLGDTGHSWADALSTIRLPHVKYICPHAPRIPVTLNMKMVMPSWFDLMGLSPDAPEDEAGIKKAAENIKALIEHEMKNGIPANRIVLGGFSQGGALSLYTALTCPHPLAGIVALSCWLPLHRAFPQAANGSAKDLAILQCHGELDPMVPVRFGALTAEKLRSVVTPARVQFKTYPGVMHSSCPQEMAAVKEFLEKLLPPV

Each compound was assayed against Acyl-protein thioesterase 2 (Homo sapiens) (UniProt O95372) (assay: LYPLA2 inhibitors, primary screen, counter-screen for PME1 inhibitor project, biochemical, fluorescence polarization, FP-Rh probe ABPP (AID 2177;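 note: 0% = LYPLA2 with DMSO and 100% = wells lacking LYPLA2 enzyme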)). Settings: recombinant LYPLA2, FP-Rh probe fluorescence polarization; at 5.9 µM; active compounds read high.

Row | Compound | inhibition
1 | CC(=O)NC(SC(=S)N(C)C)C(Cl)(Cl)Cl (stereo not given) | inactive: -0.42%
2 | O=P(Nc1nc2ccccc2s1)(c1ccccc1)c1ccccc1 | inactive: 6.62%
3 | C[C@H]1OP(=O)(Oc2ccccc2)[C@H](O)[C@H](O)[C@H]1N=[N+]=[N-] (stereo not given in full) | inactive: -0.24%
4 | O=P(Nc1ccccn1)(c1ccc(Br)cc1)c1ccc(Br)cc1 | inactive: -5.68%
5 | CN(C)C1(CNC(=O)c2ccc(Cl)c(S(N)(=O)=O)c2)CCCCC1 | inactive: 5.57%
6 | c1nnnn1CCn1cnnn1 | inactive: 0.04%
7 | CC(C)C(=O)NC(Sc1ccccc1)C(Cl)(Cl)Cl (stereo not given) | inactive: -2.1%
8 | O=P(Nc1nccs1)(c1ccccc1)c1ccccc1 | inactive: 5.77%
9 | CC1CCN(C(=O)Oc2c(Cl)cc(Cl)c3cccnc23)CC1 | inactive: 4.33%
10 | CC(C)=N/N=C(\N)N[N+](=O)[O-] | inactive: -1.55%
11 | CN(C)C(=O)OCCc1n(C)cc[n+]1C | inactive: -2.12%
12 | CCN(/C(=N/P(=O)(N1CCOCC1)N1CCOCC1)N1CCOCC1)c1ccc(OC)cc1 | inactive: -6.62%
13 | Nc1ccc([As](=O)(O)c2ccc(N)cc2)cc1 | inactive: 0.93%
14 | C[N+]1=C2C=CC=CC=C2SC12C([N+](=O)[O-])=CC([N+](=O)[O-])=C[C-]2[N+](=O)[O-] (stereo not given) | inactive: -3.51%
15 | Cc1ccc(NP(=O)(Oc2ccccc2)Oc2ccccc2)nc1 | inactive: -2.33%
16 | CCc1nc2c(n1)c1c(non1O)c1c2no[n+]1[O-] | inactive: 3.03%
17 | O=[N+]([O-])c1cc([N+](=O)[O-])c(CCNc2ccccc2)c([N+](=O)[O-])c1 | inactive: 13.9%
18 | O=[N+]([O-])c1cccc2n[nH]nc12 | inactive: 6.48%
19 | CC(=O)N1C2C3N(C(C)=O)C1C1N(C(C)=O)C(C(N1C(C)=O)N3C(C)=O)N2C(C)=O | inactive: 11.3%
20 | COc1ccc(C2=NCC(CBr)S2)cc1 (stereo not given) | inactive: -5.61%
21 | O=[N+]([O-])c1cccc(NC2=NCC(CBr)S2)c1 (stereo not given) | inactive: 2.48%
22 | O=[N+]([O-])c1ncn(CCn2ncnc2[N+](=O)[O-])n1 | inactive: -2.85%
23 | CC(C)(C)C(=O)NC(Sc1ccncn1)C(Cl)(Cl)Cl (stereo not given) | inactive: 1.21%

Row | Compound | inhibition
24 | O=C(Nc1cc([As](=O)(O)O)ccc1O)c1ccccc1 | inactive: -3.26%
25 | CCN(N=Nc1nonc1N)c1nonc1N | inactive: 0.08%
26 | O=[N+]([O-])c1cc([N+](=O)[O-])c(CCN2CCOCC2)c([N+](=O)[O-])c1 | inactive: 17.8%
27 | Cc1cc(SC(NC(=O)c2ccc(F)cc2)C(Cl)(Cl)Cl)ncn1 (stereo not given) | inactive: -2.58%
28 | CCOP(=O)(Nc1ccccc1)OCC | inactive: 11.8%
29 | Cc1ccc(NP(=O)(Oc2ccccc2F)Oc2ccccc2F)nc1 | inactive: 1.41%
30 | CN(C(=O)Cc1ccc(Cl)c(Cl)c1)[C@H]1CCCC[C@@H]1N1CCCC1 | inactive: 3.44%
31 | O=P(Nc1nc2ccc(Cl)cc2s1)(c1ccccc1)c1ccccc1 | inactive: -1%
32 | CC(=O)Nc1ccc([As](=O)(O)O)cc1 | inactive: 6.56%
33 | O=C(O)c1ccccc1[As](=O)(O)O | inactive: 5.08%
34 | Oc1ccccc1CNc1ccccn1 | inactive: 1.92%
35 | O=C(NC(Sc1ccncn1)C(Cl)(Cl)Cl)c1ccccc1 (stereo not given) | inactive: -0.35%
36 | Cc1c2non([O-])c-2c(C)[n+](=O)[n+]1[O-] | inactive: 2.36%
37 | Nc1cc(N)c2nonc2c1[N+](=O)[O-] | inactive: 5.5%
38 | CC(C)CC(=O)NC(Sc1ccc(Cl)cc1)C(Cl)(Cl)Cl (stereo not given) | inactive: -1.73%
39 | CN1CCCC(OC(=O)C(c2ccccc2)c2ccccc2)C1 (stereo not given) | inactive: -4.01%
40 | Clc1ccc(Cl)c(NC2=NCC(CBr)S2)c1 (stereo not given) | inactive: -1.25%
41 | COc1ccccc1OP(=O)(Nc1ccc(C)cn1)Oc1ccccc1OC | inactive: 0.32%
42 | Cc1ccc(OP(=O)(Nc2nccs2)Oc2ccc(C)cc2)cc1 | inactive: 0.52%
43 | CN(C(=O)Cc1ccc(Cl)c(Cl)c1)[C@H]1CCCC[C@H]1N1CCCC1 | inactive: 1.67%
44 | Cc1ccc(N/C(=N/P(=O)(N2CCOCC2)N2CCOCC2)N2CCOCC2)cc1 | inactive: 0.11%
45 | NC(=O)c1cc([N+](=O)[O-])cc([N+](=O)[O-])c1N | inactive: -1.2%
